Measurements: patent publication US20250269051A1 (ALMAC DISCOVERY, published 2025)

Molecular target: T1, human ROR1 on the cell surface (human, UniProt Q01973)
T1 construct: whole, on cells; also called cell-surface ROR1; ROR1 on A549, PA-1, Kasumi-2, MHH-ES1, HEK293.hROR1 cells
Assay: flow cytometry on A549 (ROR1 hi) cells, YEL-B-HLog median fluorescence, bars at 12 concentrations up to 122 nM

B1: P3A1 hFc (S239C) MA-PEG4-vc-PAB-EDA-PNU159682 (Fc fusion, name in EU numbering)
chain: TRVDQTPRTATKETGESLTINCVLTDTSYGLYSTSWFRKNPGTTDWERMSIGGRYVESVNKGAKSFSLRIKDLTVADSATYYCKAREARHPWLRQWYDGAGTVLTVNGGGGSGGGGSGGGGS[in this place human IgG1 Fc with changes]
modifications: MA-PEG4-vc-PAB-EDA-PNU159682 on the engineered Cys S239C (EU numbering)
notes: also called P3A1-hFc-PNU
Question: How did the “EC50 (read off the curve)” value turn out when B1 was run?
Answer: Its value is roughly 2 nM.
